Drawing on patent publication US9694016B2 (Novartis AG, priority 2013, dated 2017), this text covers IC50 for 32 compounds.

Protein sequences, listed by entry. Tags and fused reporters are not part of them.
UniProt P04049, whole entry Y340E/Y341E: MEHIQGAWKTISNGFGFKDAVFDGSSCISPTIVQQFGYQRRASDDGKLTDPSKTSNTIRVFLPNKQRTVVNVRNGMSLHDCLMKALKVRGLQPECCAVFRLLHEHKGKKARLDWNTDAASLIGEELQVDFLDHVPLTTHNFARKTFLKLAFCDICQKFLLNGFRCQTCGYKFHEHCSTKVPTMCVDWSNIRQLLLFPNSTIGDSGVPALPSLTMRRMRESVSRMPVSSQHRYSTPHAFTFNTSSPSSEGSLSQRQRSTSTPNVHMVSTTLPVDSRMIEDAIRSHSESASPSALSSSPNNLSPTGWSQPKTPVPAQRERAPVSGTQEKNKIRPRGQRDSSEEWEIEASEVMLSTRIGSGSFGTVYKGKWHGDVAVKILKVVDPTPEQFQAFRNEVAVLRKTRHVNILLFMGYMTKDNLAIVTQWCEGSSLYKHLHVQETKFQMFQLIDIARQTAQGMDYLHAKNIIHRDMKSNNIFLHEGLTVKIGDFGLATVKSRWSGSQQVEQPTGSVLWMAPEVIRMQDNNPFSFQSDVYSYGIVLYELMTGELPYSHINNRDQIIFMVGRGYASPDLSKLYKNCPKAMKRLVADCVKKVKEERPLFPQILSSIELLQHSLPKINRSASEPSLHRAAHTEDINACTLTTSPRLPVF

One assay has as its target C-Raf FL (full-length C-Raf protein, Y340E and Y341E activating mutations) (Homo sapiens (Human), UniProt P04049, Y340E/Y341E). Type of assay: biochemical. The conditions noted are these: AlphaScreen, 60 min pre-incubation, 1 hour reaction; read-out: c-Raf FL IC-50.
On to `CCNCc1ccc(C(=O)Nc2ccc(C)c(-c3cc(N4CCOCC4)c(OCC)nn3)c2)cc1C(F)(F)F` [Example 575, N-(3-(6-ethoxy-5-morpholinopyridazin-3-yl)-4-methylphenyl)-4-((ethylamino)methyl)-3-(trifluoromethyl)benzamide], for which the IC50 is 0.9 nM. On to `CCOc1nnc(-c2cc(NC(=O)c3ccnc(C(C)(C)C#N)c3)ccc2C)cc1N1CCOC[C@@H]1C` [Example 572, (S)-2-(2-cyanopropan-2-yl)-N-(3-(6-ethoxy-5-(3-methylmorpholino)pyridazin-3-yl)-4-methylphenyl)isonicotinamide], for which the IC50 amounted to 1 nM.

`CCOc1nnc(-c2cc(NC(=O)c3ccnc(C4CC4)c3)cnc2C)cc1N1CCOCC1` [Example 612, 2-cyclopropyl-N-(5-(6-ethoxy-5-morpholinopyridazin-3-yl)-6-methylpyridin-3-yl)isonicotinamide]: the IC50 is 0.7 nM. Still for that read-out and setting: the result for `COc1nnc(-c2cc(NC(=O)c3ccnc(C(C)(C)F)c3)ccc2C)cc1N1CCOCC1` [Example 552, 2-(2-fluoropropan-2-yl)-N-(3-(6-methoxy-5-morpholinopyridazin-3-yl)-4-methylphenyl)isonicotinamide] reads 0.8 nM; that for `CCOc1nnc(-c2cc(NC(=O)c3ccnc(C4CC4)c3)ccc2C)cc1N1CCOCC1` [Example 563, 2-cyclopropyl-N-(3-(6-ethoxy-5-morpholinopyridazin-3-yl)-4-methylphenyl)isonicotinamide], 0.2 nM. Still for that read-out and setting: with `Cc1ncc(NC(=O)c2cnnc(C(F)(F)F)c2)cc1-c1cc(N2CCOCC2)n2nccc2n1` [Example 801, N-(6-methyl-5-(7-morpholinopyrazolo[1,5-a]pyrimidin-5-yl)pyridin-3-yl)-6-(trifluoromethyl)pyridazine-4-carboxamide] the figure was 0.9 nM; with `Cc1ncc(NC(=O)c2ccnc(C(C)(F)F)c2)cc1-c1cc(N2CCOC[C@H]2C)n(C)c(=O)c1` [Example 524, (R)-2-(1,1-difluoroethyl)-N-(1′,2-dimethyl-6′-(3-methylmorpholino)-2′-oxo-1′,2′-dihydro-[3,4′-bipyridin]-5-yl)isonicotinamide], 13.6 nM. Same read-out and setting: the result for `Cc1ncc(NC(=O)c2cc(CN(C)C)cc(C(F)(F)F)c2)cc1-c1ccc(C#N)c(N2CCOCC2)c1` [Example 685, N-(5-(4-cyano-3-morpholinophenyl)-6-methylpyridin-3-yl)-3-((dimethylamino)methyl)-5-(trifluoromethyl)benzamide] reads 1.9 nM; that for `Cc1ccc(NC(=O)c2ccnc(C3(C#N)CC3)c2)cc1-c1cc(N2CCOCC2)n(C)c(=O)c1` [Example 480, 2-(1-cyanocyclopropyl)-N-(4-methyl-3-(1-methyl-6-morpholino-2-oxo-1,2-dihydropyridin-4-yl)phenyl)isonicotinamide], 0.1 nM. Take `Cc1ncc(NC(=O)c2ccnc(C(F)(F)F)c2)cc1-c1cc(N2CCOCC2)n(C)c(=O)c1` [Example 500]: the IC50 was determined as 1.3 nM.

As for `Cc1ncc(NC(=O)c2ccnc(C(C)(C)C#N)c2)cc1-c1cc(N2CCOCC2)nc(N[C@@H](C)CO)n1` [Example 744, (S)-2-(2-cyanopropan-2-yl)-N-(5-(2-((1-hydroxypropan-2-yl)amino)-6-morpholinopyrimidin-4-yl)-6-methylpyridin-3-yl)isonicotinamide], the IC50 came out at 6.2 nM. As for `CCOc1nnc(-c2cc(NC(=O)c3ccc(CN(C)C)c(C(F)(F)F)c3)ccc2C)cc1N1CCOCC1` [Example 576, 4-((dimethylamino)methyl)-N-(3-(6-ethoxy-5-morpholinopyridazin-3-yl)-4-methylphenyl)-3-(trifluoromethyl)benzamide], the IC50 came out at 1.1 nM. As to `Cc1ncc(NC(=O)c2ccnc(C3CC3)c2)cc1-c1cc(N2CCOCC2)c(=O)n(C)n1` [Example 682, 2-cyclopropyl-N-(6-methyl-5-(1-methyl-5-morpholino-6-oxo-1,6-dihydropyridazin-3-yl)pyridin-3-yl)isonicotinamide], the IC50 amounted to 2.2 nM. Same read-out and setting: with `Cc1ncc(NC(=O)c2ccnc(C(C)C)c2)cc1-c1cc(N2CCOCC2)n(C)c(=O)c1` [Example 505, N-(1′,2-dimethyl-6′-morpholino-2′-oxo-1′,2′-dihydro-[3,4′-bipyridin]-5-yl)-2-isopropylisonicotinamide] the figure was 1.4 nM; with `CCNc1nc(-c2cc(NC(=O)c3ccnc(C(C)(C)O)c3)ccc2C)cc(N2CCOC[C@@H]2C)n1` [Example 713, (S)—N-(3-(2-(ethylamino)-6-(3-methylmorpholino)pyrimidin-4-yl)-4-methylphenyl)-2-(2-hydroxypropan-2-yl)isonicotinamide], 1.4 nM; with `CCNc1nc(-c2cc(NC(=O)c3ccnc(C4COC4)c3)ccc2C)cc(N2CCOCC2)n1` [Example 707, N-(3-(2-(ethylamino)-6-morpholinopyrimidin-4-yl)-4-methylphenyl)-2-(oxetan-3-yl)isonicotinamide], 0.7 nM. On the same count and under the same terms, with `Cc1ccc(NC(=O)c2ccnc(C(C)(C)C)c2)cc1-c1cc(N2CCOCC2)c2nccn2n1` [Example 845, 2-(tert-butyl)-N-(4-methyl-3-(8-morpholinoimidazo[1,2-b]pyridazin-6-yl)phenyl)isonicotinamide] the figure was 0.3 nM. Regarding `Cc1ncc(NC(=O)c2ccnc(C(C)(C)C#N)c2)cc1-c1cc(N2CCOCC2)nc(NC(C)(C)CO)n1` [Example 750, 2-(2-cyanopropan-2-yl)-N-(5-(2-((1-hydroxy-2-methylpropan-2-yl)amino)-6-morpholinopyrimidin-4-yl)-6-methylpyridin-3-yl)isonicotinamide], the IC50 was 3.8 nM.

The assay is the same for the next values; noted with them: AlphaScreen, 60 min pre-incubation, reaction 1 hour at room temperature; read-out: c-Raf FL IC-50.
Regarding `Cc1ccc(NC(=O)c2ccnc(C(F)(F)F)c2)cc1-c1cc(N2CCOCC2)c(S(C)(=O)=O)nn1` [Example 930], the IC50 turned out to be 0.31 nM. For `Cc1ncc(NC(=O)c2ccnc(C(C)(C)F)c2)cc1-c1cnc(OC(C)C)c(N2CCOCC2)c1` [Example 953, 2-(2-fluoropropan-2-yl)-N-(6′-isopropoxy-2-methyl-5′-morpholino-[3,3′-bipyridin]-5-yl)isonicotinamide], the IC50 was found to be 1.36 nM. The same measure, in the same setting: with `Cc1ncc(NC(=O)c2ccnc(C(C)(C)F)c2)cc1-c1cc(C2COCCO2)nc(N2CCOCC2)c1` (centres unmarked) [Example 1167, N-(2′-(1,4-dioxan-2-yl)-2-methyl-6′-morpholino-[3,4′-bipyridin]-5-yl)-2-(2-fluoropropan-2-yl)isonicotinamide] the figure was 2.12 nM; with `Cc1ncc(NC(=O)c2ccc(C(O)CO)c(C(F)(F)F)c2)cc1-c1cc(N2CCOCC2)c2nccn2n1` (centres unmarked) [Example 873, 4-(1,2-dihydroxyethyl)-N-(6-methyl-5-(8-morpholinoimidazo[1,2-b]pyridazin-6-yl)pyridin-3-yl)-3-(trifluoromethyl)benzamide], 0.5 nM; with `Cc1ncc(NC(=O)c2ccnc(C(C)(C)O)c2)cc1-c1cnc(OC(F)F)c(N2CCOCC2)c1` [Example 979, N-(6′-(difluoromethoxy)-2-methyl-5′-morpholino-[3,3′-bipyridin]-5-yl)-2-(2-hydroxypropan-2-yl)isonicotinamide], 6.24 nM.

As for `Cc1ncc(NC(=O)c2cc(C(C)(C)O)ccn2)cc1-c1cnc(OC2CC3(COC3)C2)c(N2CCOCC2)c1` [Example 969, N-(6′-(2-oxaspiro[3.3]heptan-6-yloxy)-2-methyl-5′-morpholino-[3,3′-bipyridin]-5-yl)-4-(2-hydroxypropan-2-yl)picolinamide], the IC50 is 4.98 nM.

For `Cc1ncc(NC(=O)c2ccnc(C(C)C)c2)cc1-c1cc(N2CCOCC2)c2nccn2n1` [Example 869, 2-isopropyl-N-(6-methyl-5-(8-morpholinoimidazo[1,2-b]pyridazin-6-yl)pyridin-3-yl)isonicotinamide], the IC50 was 0.2 nM. With `Cc1ccc(NC(=O)c2cccc(C(F)(F)F)c2)cc1-c1cc(NCC(O)C(F)(F)F)nc(N2CCOCC2)c1` (centres unmarked) [Example 1063, N-(4-methyl-3-(2-morpholino-6-((3,3,3-trifluoro-2-hydroxypropyl)amino)pyridin-4-yl)phenyl)-3-(trifluoromethyl)benzamide], the IC50 stood at 0.25 nM.

The same assay, now with this note: Table 2; AlphaScreen, 1 hour reaction; read-out: c-Raf FL IC-50.
As for `Cn1cc(-c2cc(C(=O)Nc3cccc(C(C)(C)C#N)c3)ccc2Cl)cc(N2CCOCC2)c1=O` [Example 427, 4-chloro-N-(3-(2-cyanopropan-2-yl)phenyl)-3-(1-methyl-5-morpholino-6-oxo-1,6-dihydropyridin-3-yl)benzamide], the IC50 came out at 1.2 nM. Take `CCOc1ncc(-c2cc(NC(=O)c3cc(C(F)(F)F)c(=O)n(CC)c3)cnc2C)cc1N1CCOCC1` [Example 241, N-(6′-ethoxy-2-methyl-5′-morpholino-[3,3′-bipyridin]-5-yl)-1-ethyl-6-oxo-5-(trifluoromethyl)-1,6-dihydropyridine-3-carboxamide]: the IC50 was determined as 2 nM. Regarding `CCOc1ncc(-c2cc(C(=O)Nc3cccc(C(C)(C)O)c3)ccc2C)cc1N1CCOCC1` [Example 236, 3-(6-ethoxy-5-morpholinopyridin-3-yl)-N-(3-(2-hydroxypropan-2-yl)phenyl)-4-methylbenzamide], the IC50 stood at 0.6 nM.

With `CCN(C(=O)c1cccc(C(F)(F)F)c1)c1cnc(C)c(-c2cnc(OC3CCOCC3)c(N3CCOCC3)c2)c1` [Example 329, N-ethyl-N-(2-methyl-5′-morpholino-6′-((tetrahydro-2H-pyran-4-yl)oxy)-[3,3′-bipyridin]-5-yl)-3-(trifluoromethyl)benzamide], the IC50 came out at 300 nM. The same measure, in the same setting: the result for `Cc1ncc(NC(=O)c2ccc(F)c(OC(C)C)c2)cc1-c1cc(N2CCOCC2)c(=O)n(C)c1` [Example 396, N-(1′,2-dimethyl-5′-morpholino-6′-oxo-1′,6′-dihydro-[3,3′-bipyridin]-5-yl)-4-fluoro-3-isopropoxybenzamide] reads 5 nM. For `Cn1cc(-c2cc(C(=O)Nc3cccc(C(C)(C)O)c3)cnc2Cl)cc(N2CCOCC2)c1=O` [Example 424, 2-chloro-N-(3-(2-hydroxypropan-2-yl)phenyl)-t-methyl-5′-morpholino-6′-oxo-1′,6′-dihydro-[3,3′-bipyridine]-5-carboxamide], the IC50 came to 14.3 nM.
